Molecular target: Hepatocyte growth factor receptor (Homo sapiens) (UniProt P08581)
Assay: Inhibition of human recombinant his-tagged c-Met at 100 uM by TR-FRET assay
Parameters: scale not given: the % may be the effect or the level left

Amino acid sequences for entries named in this document (tags omitted). A change or cut given only in a name is not applied to a line headed by its entry.
UniProt P08581: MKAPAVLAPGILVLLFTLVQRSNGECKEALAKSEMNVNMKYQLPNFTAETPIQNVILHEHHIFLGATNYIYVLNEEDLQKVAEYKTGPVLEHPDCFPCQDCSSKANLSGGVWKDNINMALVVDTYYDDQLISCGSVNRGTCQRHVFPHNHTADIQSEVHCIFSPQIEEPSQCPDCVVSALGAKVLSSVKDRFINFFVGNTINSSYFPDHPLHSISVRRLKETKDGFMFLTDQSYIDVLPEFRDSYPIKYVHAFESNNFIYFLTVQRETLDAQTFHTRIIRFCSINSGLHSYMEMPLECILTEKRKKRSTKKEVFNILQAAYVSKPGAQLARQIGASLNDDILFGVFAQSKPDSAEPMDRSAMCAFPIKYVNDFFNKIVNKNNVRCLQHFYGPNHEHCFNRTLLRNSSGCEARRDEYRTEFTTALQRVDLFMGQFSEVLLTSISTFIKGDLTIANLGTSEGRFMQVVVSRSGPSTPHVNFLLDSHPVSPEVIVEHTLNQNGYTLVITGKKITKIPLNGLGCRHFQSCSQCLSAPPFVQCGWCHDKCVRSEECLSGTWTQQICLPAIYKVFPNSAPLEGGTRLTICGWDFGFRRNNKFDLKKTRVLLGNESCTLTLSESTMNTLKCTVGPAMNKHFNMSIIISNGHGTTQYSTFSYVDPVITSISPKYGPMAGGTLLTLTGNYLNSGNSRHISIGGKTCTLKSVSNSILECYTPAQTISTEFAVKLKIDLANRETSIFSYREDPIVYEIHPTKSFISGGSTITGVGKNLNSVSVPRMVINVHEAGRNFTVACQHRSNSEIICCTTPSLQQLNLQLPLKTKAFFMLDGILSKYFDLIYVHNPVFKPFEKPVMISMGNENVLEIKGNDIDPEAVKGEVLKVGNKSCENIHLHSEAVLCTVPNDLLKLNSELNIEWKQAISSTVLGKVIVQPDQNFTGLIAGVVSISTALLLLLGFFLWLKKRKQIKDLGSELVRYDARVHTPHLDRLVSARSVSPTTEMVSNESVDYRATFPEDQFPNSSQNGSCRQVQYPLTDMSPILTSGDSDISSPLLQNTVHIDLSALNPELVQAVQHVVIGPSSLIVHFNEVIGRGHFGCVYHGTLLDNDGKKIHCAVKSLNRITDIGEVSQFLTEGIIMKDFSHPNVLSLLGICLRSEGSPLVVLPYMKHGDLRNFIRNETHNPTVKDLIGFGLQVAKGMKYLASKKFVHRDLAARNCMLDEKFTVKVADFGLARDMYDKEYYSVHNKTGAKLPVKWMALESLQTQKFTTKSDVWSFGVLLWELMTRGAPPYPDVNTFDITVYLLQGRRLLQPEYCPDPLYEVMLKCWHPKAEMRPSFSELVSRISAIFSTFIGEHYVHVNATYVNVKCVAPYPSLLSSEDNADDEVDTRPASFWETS

Row | Activity [%] | SMILES
1 | 0 | CC(=O)Nc1cnc2cc(C(F)(F)F)cc(-c3ccccc3)c2n1
2 | 0 | FC(F)(F)c1cc(-c2ccccc2)c2nccnc2c1
3 | 0 | CN1CCN(c2cnc3cc(C(F)(F)F)cc(-c4ccc(OCc5ccccc5)cc4)c3n2)CC1

Source: ChEMBL document CHEMBL1154528, “Discovery of a novel series of quinoxalines as inhibitors of c-Met kinase” (Bioorg Med Chem Lett, 2009)
